scFv variants of Ab-14 (light chain) against a SARS-CoV-2 spike peptide

Source: Engelhart et al. 2022 (doi:10.1038/s41597-022-01779-4), MIT Lincoln Laboratory and A-Alpha Bio; data file from the FLAb repository.

The target is the same throughout: PDVDLGDISGINAS, from the HR2 region of SARS-CoV-2 spike.

Parent scFv Ab-14: VH joined to VL by three GGGGS repeats. Changes lie in the light chain CDRs alone.
VH: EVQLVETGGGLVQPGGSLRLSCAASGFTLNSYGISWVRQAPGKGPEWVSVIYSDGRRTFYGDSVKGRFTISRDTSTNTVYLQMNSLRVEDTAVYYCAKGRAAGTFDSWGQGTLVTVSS
VL: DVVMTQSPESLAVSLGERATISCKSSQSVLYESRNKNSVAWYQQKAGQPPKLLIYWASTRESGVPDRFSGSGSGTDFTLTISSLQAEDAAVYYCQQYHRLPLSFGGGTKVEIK

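Phage display of a naive human antibody library on the peptide gave the parent. AAYL50 was designed without a model: most single CDR substitutions and a random sample of double and triple ones. In AlphaSeq, yeast of one mating type display the scFv and yeast of the other type display the target. Binding brings cells together so that they mate, and sequencing counts the barcode pairs among the diploids. Scores were corrected for input abundance and mapped to Kd with protein pairs of known affinity run in the same pool. Each pool was mated in three replicate cultures.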

Positions count from residue 1 of the parent VL; K36D puts D in place of K. The read-out is the apparent dissociation constant on a log10 scale (nM): the lower, the stronger. "ND" means that the variant was in the library but no mating with the target was seen in that replicate; the authors take this as a sign of poor binding, and no number exists. As a blank, each scFv also met three strains without target: over library AAYL50, 18% of these pairings were detected, typically at 4.19 and seldom below 2.99. For each scFv, signals with the empty controls are counted beside the result.

The variant K36D+Q95G showed 2.64, 3.68, 3.35 (controls 1 of 9).
The variant S33C+Y97V+L100A showed ND, ND, ND (controls 1 of 9).
The variant V29M+S38I+R99A showed ND, ND, ND (controls 0 of 9).
The variant S26G+R34Q+Q95E showed 0.94, 0.91, 0.90 (controls 6 of 9).
The variant V29H+Y31A+N37A showed 1.75, 1.76, 2.19 (controls 1 of 9).
The variant S28R+E61R showed ND, 3.46, ND (controls 2 of 9).
The variant V29P+L100F+L102A showed 4.28, 3.61, ND (controls 3 of 9).
The variant S28D+A57M+Q95D showed ND, 3.41, ND (controls 0 of 9).
The variant L30F+A40E+S58R showed ND, 5.16, 4.76 (controls 4 of 9).
The variant L30Q+E61M+L100F showed 0.79, 1.09, 0.70 (controls 0 of 9).
The variant R34Y+L100A showed ND, 4.97, ND (controls 3 of 9).
The variant A40S+S58Y+E61I showed ND, 3.75, ND (controls 3 of 9).
The variant L30V+V39Q+E61Y showed ND, ND, ND (controls 1 of 9).
The variant K36L+S38F showed ND, ND, ND (controls 1 of 9).
The variant S38P+W56F+S58F showed ND, ND, ND (controls 1 of 9).
The variant R34P+E61A+S103I showed ND, 5.14, 3.65 (controls 3 of 9).
The variant R34N+A40Q showed ND, ND, ND (controls 0 of 9).
The variant A57S+T59M+L102N showed ND, ND, ND (controls 2 of 9).
The variant N37E+S38C+P101F showed 2.42, 2.90, 3.32 (controls 2 of 9).
The variant V39T+T59H+E61Q showed ND, ND, ND (controls 1 of 9).
The variant E32R+N35P+S58W showed 4.07, ND, ND (controls 3 of 9).
The variant S58K showed ND, 2.77, 5.33 (controls 1 of 9).
The variant Q27S+S62I showed 1.52, 1.69, 1.87 (controls 2 of 9).
The variant S26E+L30K+K36A showed 1.79, 1.62, 1.81 (controls 0 of 9).
The variant S33M+A40F showed 4.48, ND, ND (controls 2 of 9).
The variant Y97E+H98I+P101Q showed 1.30, 1.28, 1.07 (controls 5 of 9).
The variant Y31V+E32D+N37T showed 1.21, 1.11, 1.39 (controls 0 of 9).
The variant S28P+R34E+L102I showed 1.42, 1.99, 1.76 (controls 2 of 9).
The variant L30S+W56A+P101E showed ND, ND, 3.45 (controls 4 of 9).
The variant Q27H+V29Y+S38N showed 0.32, 0.63, 0.49 (controls 1 of 9).
The variant S33Y+S38K+Q95H showed ND, ND, ND (controls 0 of 9).
The variant K24L+S62W showed 3.88, 3.08, ND (controls 0 of 9).

Repeated from above, the 3 best binders with a signal in all replicates:

Variant Q27H+V29Y+S38N showed 0.32, 0.63, 0.49 (controls 1 of 9).
Variant L30Q+E61M+L100F showed 0.79, 1.09, 0.70 (controls 0 of 9).
Variant S26G+R34Q+Q95E showed 0.94, 0.91, 0.90 (controls 6 of 9).

For reference, the parent read 0.65 as the reference entry and 1.68 as a member of this library.